Reference: US6596719B1 (Actelio Pharmaceuticals Ltd., priority 1999, dated 2003)
pIC50: −log10 of the molar value.

Protein sequences, listed by entry. Tags and fused reporters are not part of them. Residues count along the entry.
UniProt P25101, 21-427: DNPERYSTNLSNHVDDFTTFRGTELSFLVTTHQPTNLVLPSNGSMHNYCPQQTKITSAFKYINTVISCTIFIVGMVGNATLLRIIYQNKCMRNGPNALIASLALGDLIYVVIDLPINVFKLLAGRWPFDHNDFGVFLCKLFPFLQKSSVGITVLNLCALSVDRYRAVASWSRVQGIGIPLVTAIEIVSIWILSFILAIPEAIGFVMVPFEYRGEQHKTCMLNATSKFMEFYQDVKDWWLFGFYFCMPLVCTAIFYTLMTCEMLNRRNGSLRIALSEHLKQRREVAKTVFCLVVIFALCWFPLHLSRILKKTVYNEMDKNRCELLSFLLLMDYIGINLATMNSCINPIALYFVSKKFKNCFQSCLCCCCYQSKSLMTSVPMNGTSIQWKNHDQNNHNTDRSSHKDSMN

Molecular target: T1, human recombinant ETA receptors (Homo sapiens, UniProt P25101)
T1 construct: expressed in transfected cells; host or cells: CHO cells (microsomal membranes)
Assay: Inhibition of endothelin binding to membranes from CHO cells carrying human ET receptors (ETA)
Conditions: membranes of CHO cells expressing human recombinant ETA receptors, 8 pM [125I]ET-1, 2 h at 20° C.

With `COc1ccccc1Oc1c(NS(=O)(=O)c2ccc(C)cn2)nc(N2CCOCC2)nc1OCCNS(=O)(=O)c1cccs1` [Example 58, 5-methyl-N-[6-(2-(thiophene-2-sulfonylamino)-ethoxy)-5-(o-methoxyphenoxy)-2-(N-morpholino)-4-pyrimidinyl]-2-pyridine sulfonamide] the pIC50 was 6.14.
